Data published in patent publication US8859559B2, “Substituted pyrazines and their use in the treatment of disease” (Boehringer Ingelheim International GmbH, priority 2011, dated 2014).

Protein sequences, listed by entry. Tags and fused reporters are not part of them.
UniProt Q61180, whole entry: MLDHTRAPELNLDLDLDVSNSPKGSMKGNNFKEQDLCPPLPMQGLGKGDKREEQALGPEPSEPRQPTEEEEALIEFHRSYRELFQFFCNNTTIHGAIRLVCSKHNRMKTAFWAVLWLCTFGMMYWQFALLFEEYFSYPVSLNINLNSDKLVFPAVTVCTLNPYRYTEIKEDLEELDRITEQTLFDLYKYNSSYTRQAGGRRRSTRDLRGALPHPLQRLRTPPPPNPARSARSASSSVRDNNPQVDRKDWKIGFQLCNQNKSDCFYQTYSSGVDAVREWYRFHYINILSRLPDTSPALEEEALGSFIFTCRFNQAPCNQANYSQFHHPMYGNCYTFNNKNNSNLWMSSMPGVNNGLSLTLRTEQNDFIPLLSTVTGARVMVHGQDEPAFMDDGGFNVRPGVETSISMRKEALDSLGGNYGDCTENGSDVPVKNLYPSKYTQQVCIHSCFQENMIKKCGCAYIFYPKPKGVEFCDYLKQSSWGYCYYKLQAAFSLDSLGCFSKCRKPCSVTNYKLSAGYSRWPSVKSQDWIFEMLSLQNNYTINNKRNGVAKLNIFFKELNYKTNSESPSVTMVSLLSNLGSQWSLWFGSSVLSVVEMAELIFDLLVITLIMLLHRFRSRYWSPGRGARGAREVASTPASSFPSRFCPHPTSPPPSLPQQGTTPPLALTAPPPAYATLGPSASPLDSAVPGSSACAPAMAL
UniProt Q9WU38, whole entry: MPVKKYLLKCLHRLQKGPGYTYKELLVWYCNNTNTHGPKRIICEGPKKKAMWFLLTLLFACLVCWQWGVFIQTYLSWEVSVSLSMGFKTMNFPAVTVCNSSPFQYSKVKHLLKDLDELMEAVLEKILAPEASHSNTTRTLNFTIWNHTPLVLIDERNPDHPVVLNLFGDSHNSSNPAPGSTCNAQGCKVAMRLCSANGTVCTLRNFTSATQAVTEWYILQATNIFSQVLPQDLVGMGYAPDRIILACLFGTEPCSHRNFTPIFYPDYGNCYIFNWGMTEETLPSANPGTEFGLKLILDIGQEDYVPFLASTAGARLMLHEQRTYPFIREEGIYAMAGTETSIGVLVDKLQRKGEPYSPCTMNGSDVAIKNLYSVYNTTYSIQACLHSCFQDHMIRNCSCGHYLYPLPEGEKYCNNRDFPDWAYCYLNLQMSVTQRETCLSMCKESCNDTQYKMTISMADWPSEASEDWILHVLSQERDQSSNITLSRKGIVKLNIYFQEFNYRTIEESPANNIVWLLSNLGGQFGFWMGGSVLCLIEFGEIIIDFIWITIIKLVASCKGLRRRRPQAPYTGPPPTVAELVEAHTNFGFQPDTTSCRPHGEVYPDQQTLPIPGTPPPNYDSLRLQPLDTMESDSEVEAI
UniProt Q9WU39, whole entry: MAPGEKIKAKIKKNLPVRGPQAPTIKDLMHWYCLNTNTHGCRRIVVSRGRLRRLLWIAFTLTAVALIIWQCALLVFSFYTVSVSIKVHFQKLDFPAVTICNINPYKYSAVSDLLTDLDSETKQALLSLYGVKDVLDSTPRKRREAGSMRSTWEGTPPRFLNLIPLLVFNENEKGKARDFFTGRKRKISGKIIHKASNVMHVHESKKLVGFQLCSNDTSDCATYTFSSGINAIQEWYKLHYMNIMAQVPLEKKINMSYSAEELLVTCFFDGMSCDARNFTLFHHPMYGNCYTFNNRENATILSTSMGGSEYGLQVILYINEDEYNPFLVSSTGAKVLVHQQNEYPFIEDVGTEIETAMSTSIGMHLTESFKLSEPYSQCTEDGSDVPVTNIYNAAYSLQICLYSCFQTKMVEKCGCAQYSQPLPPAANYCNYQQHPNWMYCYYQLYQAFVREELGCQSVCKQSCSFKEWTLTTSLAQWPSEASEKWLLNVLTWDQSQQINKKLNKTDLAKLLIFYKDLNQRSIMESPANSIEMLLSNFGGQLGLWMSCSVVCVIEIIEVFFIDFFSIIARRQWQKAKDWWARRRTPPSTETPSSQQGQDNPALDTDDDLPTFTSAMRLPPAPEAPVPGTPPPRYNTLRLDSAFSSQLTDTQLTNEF

These compounds were tested against ENaC (Epithelial Sodium Channel) (Mus musculus, UniProt Q61180+Q9WU38+Q9WU39) (assay: Ussing chamber: inhibition of amiloride sensitive short circuit current (I_sc) in M-1 cells). Conditions: mouse kidney M-1 cells.
Experimental: Mouse kidney M-1 cells were cultivated in DMEM containing 5% FCS and 5 μM dexamethasone for 10 to 12 days on polyester transwell filters. Filters were inserted into a teflon-coated well-plate which fit into the in-house ussing chamber system. Prior to measurement the medium of M-1 cells was replaced with Caco-2 transport buffer (Invitrogen, Germany). During measurements, the Ussing chamber temperature was kept at 37° C. Short circuit currents (I_sc) were measured in the voltage-clamp mode using an in-house built amplifier (Boehringer Ingelheim, Biberach) with the software package Lab View for data acquisition and analysis. The transepithelial electrical resistance (TEER) was determined by the application of voltage steps of ±5 mV every 5 sec. Compounds were administered at a final concentration of 3 μM or at increasing concentrations (1-3-10 μM) to the apical solution. At the end of each experiment the amiloride sensitive I_SC was measured by adding 3 μM amiloride to the apical compartment. Results are expressed as inhibition in percent of the amiloride effect or as IC50. With the example compounds given above, the following IC50 values were determined in the Ussing Chamber assay: […]
`CCOP(=O)(O)c1ccc(CN2CCC(NC(N)=NC(=O)c3nc(Cl)c(N)nc3N)CC2)cc1` gave an IC50 of 23 nM. In the case of `COC(=O)COc1cc(CN2CCC(NC(N)=NC(=O)c3nc(Cl)c(N)nc3N)CC2)cc(OCC(=O)OC)c1`, the IC50 is reported as 4 nM. For `COC(=O)COc1ccc(CN2CCC(NC(N)=NC(=O)c3nc(Cl)c(N)nc3N)CC2)cc1`, the IC50 was 8 nM. Compound `COC(=O)c1cc(CN2CCC(NC(N)=NC(=O)c3nc(Cl)c(N)nc3N)CC2)cc(C(=O)NCCOCCO)c1` has an IC50 of 4 nM. For `NC(=NC(=O)c1nc(Cl)c(N)nc1N)NC1CCN(Cc2cccc(C(=O)O)c2)CC1`, the IC50 was 45 nM. Work on `CC(=O)NCCNS(=O)(=O)c1ccc(CN2CCC(NC(N)=NC(=O)c3nc(Cl)c(N)nc3N)CC2)cc1` yielded an IC50 of 8 nM.

Same assay, conditions: mouse kidney M-1 cells, tested form: TFA
`C[N+](C)(C)CCNC(=O)c1ccc(CN2CCC(NC(N)=NC(=O)c3nc(Cl)c(N)nc3N)CC2)cc1` showed an IC50 of 2 nM. `NC(=NC(=O)c1nc(Br)c(N)nc1N)NC1CCN(Cc2ccc(OCC(=O)O)cc2)CC1` gave an IC50 of 103 nM.
